These results are taken from PubChem BioAssay AID1117355 (Cheminformatics & Chemogenomics Research Group (CCRG), …, 2015).

The chains behind the UniProt entries cited, without tags or fusion partners.
UniProt P49841, whole entry, looked up: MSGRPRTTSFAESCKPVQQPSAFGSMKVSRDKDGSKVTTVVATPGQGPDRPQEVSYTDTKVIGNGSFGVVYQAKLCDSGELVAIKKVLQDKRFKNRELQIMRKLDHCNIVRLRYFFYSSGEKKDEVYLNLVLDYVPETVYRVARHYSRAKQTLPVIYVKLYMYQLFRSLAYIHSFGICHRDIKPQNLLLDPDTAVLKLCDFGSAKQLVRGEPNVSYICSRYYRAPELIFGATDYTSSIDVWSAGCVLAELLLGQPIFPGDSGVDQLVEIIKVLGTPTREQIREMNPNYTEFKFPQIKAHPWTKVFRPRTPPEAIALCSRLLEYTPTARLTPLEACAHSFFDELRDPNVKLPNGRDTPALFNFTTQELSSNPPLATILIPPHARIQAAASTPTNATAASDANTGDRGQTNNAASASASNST

One may read the inhibition as the drop in the measured response relative to a control, in per cent.

Structures are written as SMILES. Activity calls are given as the source filed them. The rule behind the calls is not given here.

This experiment concerns the target Glycogen synthase kinase-3 beta (Homo sapiens) (UniProt P49841). Nature of the experiment: NPC library primary assay, GSK-3β enzyme inhibitors, biochemical, Homo sapiens, LANCE Ultra TR-FRET detection (AID 1117355). To be noted: LANCE Ultra TR-FRET kinase activity; at 20 µM (top of the series). For orientation: TR-FRET usually uses a lanthanide donor and a delayed reading to cut background.

On to `CN(CCCl)CCCl`, for which the inhibition is inactive: -3.27%.
